# Values quoted from earlier work, collected in US8697718B2, “Pack of medicinal tablets” (RB Pharmaceuticals Limited, priority 2007, dated 2014).
# Conditions: stated in WO 2005/117838
substance,measurement,value
buprenorphine hydrochloride,degradation in acid or alkaline conditions,shows degradation
